In the Immune Epitope Database (IEDB) one finds IC50 data, which are given here for two sequences.

The assay has as its target HLA-B*35:01. Description: IEDB peptide-MHC binding, purified MHC/competitive/radioactivity; ≥ and ≤ were set here for values at or beyond the usual limits of such assays. The settings on record: source organism: Homo sapiens.

The term IC50 denotes the point on the concentration scale where inhibition reaches its midpoint. Turning to MPIEPGDIGY, the concentration for half-maximal inhibition (IC50) amounted to 0.0017 µM.
The figure for TPTVPSGSF is 0.666 µM.
